According to patent US11324714B2 (priority 2008, dated 2022):

System: normal Swiss-Webster mice
Test: single dose injection toxicity (mortality)
Format: in vivo

CCC[As](CCC)SCC(O)CO (stereo not shown)
LD50: 100 mg/kg
